Assay results from patent US5364864A, “1,4-disubstituted piperidines, their preparation and their application in therapy” (priority 1991, dated 1994).

Chains of the proteins cited; added tags and fusions are not shown. Residues count along the entry.
UniProt P22303, 32-614: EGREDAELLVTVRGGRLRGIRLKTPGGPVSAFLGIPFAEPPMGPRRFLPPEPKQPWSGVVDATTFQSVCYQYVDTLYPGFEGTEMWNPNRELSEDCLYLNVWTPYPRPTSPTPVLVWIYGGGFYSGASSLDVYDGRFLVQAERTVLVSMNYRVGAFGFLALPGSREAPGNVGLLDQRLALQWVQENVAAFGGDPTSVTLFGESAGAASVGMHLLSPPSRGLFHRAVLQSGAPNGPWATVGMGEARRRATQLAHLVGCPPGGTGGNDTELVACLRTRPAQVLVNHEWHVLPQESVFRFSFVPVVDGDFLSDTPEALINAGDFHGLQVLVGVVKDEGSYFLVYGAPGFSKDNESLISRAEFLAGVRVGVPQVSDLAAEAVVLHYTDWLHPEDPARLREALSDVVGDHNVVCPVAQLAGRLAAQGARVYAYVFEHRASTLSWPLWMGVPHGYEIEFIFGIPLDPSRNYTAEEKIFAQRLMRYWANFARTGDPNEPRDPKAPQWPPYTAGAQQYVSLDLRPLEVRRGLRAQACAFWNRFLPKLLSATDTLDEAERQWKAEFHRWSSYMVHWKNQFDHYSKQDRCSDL

Target: acetylcholinesterase (Homo sapiens, UniProt P22303)
Assay: Inhibition of acetylcholinesterase activity (method of Ellman et al.)
Assay type: biochemical

Compound | IC50
COc1ccc(NC(=S)NCCC2CCN(Cc3ccccc3)CC2)cc1 [Compound 9] | 150 nM
O=[N+]([O-])C=C(NCCC1CCN(Cc2ccccc2)CC1)Nc1ccccc1 [Compound 4, N-Phenyl-N'-[2-(1-benzyl-4-piperidyl)ethyl]-1,1-diamino-2-nitroethylene] | 80 nM
